This is an account of results in ChEMBL document CHEMBL1154385, “(4-Piperidinyl)-piperazine: a new platform for acetyl-CoA carboxylase inhibitors” (Bioorg Med Chem Lett, 2009).

Amino acid sequences for entries named in this document (tags omitted).
UniProt Q1HEC0, whole entry: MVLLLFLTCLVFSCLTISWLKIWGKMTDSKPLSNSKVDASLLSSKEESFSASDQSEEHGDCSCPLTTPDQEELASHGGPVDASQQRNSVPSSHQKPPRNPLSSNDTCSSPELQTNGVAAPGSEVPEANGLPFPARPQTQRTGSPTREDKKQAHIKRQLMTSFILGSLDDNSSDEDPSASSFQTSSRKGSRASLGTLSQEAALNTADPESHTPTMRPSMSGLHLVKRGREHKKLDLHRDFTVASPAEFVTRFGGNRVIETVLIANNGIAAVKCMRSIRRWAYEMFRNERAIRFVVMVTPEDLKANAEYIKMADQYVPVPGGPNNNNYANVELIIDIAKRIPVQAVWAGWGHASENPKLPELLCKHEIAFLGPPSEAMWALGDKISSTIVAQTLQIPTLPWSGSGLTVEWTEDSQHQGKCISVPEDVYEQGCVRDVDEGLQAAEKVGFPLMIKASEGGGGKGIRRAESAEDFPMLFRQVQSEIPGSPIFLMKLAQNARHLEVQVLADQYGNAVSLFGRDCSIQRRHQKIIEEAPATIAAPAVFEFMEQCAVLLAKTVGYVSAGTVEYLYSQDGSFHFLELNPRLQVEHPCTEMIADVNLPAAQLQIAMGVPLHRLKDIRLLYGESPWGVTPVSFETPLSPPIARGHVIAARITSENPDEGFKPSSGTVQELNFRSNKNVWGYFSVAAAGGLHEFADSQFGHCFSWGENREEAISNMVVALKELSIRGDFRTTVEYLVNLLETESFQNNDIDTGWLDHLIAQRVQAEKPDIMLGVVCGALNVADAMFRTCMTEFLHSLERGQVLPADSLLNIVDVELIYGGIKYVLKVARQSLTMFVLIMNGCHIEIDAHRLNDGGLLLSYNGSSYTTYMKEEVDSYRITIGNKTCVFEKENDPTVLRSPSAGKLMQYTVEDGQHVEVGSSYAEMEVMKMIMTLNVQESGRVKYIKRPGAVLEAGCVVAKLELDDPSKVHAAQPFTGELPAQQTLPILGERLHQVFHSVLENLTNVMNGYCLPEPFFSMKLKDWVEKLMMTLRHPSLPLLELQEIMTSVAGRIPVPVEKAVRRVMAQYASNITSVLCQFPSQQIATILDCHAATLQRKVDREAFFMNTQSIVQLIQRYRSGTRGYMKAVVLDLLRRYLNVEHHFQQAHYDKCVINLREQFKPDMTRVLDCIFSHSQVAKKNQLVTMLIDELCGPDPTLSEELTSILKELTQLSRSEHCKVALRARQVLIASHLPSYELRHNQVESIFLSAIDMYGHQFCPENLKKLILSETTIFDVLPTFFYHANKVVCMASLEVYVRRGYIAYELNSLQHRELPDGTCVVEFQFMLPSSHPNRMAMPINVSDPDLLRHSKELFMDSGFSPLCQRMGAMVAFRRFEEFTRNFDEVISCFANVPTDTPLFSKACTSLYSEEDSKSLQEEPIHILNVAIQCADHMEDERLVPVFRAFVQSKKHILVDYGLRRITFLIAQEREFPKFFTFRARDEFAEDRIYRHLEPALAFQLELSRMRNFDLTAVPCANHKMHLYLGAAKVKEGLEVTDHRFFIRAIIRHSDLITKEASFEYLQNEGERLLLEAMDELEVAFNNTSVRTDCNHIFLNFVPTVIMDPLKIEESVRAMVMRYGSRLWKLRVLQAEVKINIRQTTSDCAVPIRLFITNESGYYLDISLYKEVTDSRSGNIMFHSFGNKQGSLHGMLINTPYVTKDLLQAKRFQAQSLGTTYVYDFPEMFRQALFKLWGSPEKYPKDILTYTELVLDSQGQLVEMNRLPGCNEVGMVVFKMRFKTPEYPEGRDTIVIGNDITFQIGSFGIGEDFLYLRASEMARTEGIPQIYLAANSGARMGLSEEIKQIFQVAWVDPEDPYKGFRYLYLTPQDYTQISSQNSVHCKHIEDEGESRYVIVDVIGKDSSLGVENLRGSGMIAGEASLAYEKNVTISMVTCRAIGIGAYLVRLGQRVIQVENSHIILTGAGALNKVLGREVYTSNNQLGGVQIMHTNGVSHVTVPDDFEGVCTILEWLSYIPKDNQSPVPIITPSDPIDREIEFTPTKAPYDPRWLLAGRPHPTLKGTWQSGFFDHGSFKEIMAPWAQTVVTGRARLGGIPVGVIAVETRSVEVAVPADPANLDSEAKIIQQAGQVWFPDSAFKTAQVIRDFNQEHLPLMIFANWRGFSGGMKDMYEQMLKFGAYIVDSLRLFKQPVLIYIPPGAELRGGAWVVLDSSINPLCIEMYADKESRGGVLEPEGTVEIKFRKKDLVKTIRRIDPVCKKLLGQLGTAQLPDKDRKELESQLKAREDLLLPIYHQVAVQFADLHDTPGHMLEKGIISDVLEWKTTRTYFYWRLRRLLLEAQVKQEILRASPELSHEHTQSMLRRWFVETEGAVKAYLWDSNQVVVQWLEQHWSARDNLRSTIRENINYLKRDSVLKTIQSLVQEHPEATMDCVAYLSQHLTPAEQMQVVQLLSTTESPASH

In this experiment the target is Acetyl-Coenzyme A carboxylase 2 (Rattus norvegicus, UniProt Q1HEC0). Description: Inhibition of rat ACC2.

A word on the IC50: it is the concentration that gives 50% inhibition. A lower IC50 goes with inhibition by little substance.

`O=C(c1c2ccccc2cc2ccccc12)N1CCC(N2CCC[C@@H](C(=O)N3CCOCC3)C2)CC1`: half-maximal inhibition (IC50) required 61 nM.
